Laboratory results: patent US20110076236A1, “COMPOSITIONS AND METHODS OF TREATMENT USING MODULATORS OF MOTONEURON DISEASES” (Kinemed, Inc., priority 2008, published 2011)

Tested on: MT-mediated slow axonal transport of 2H-labeled tubulin
Assay: MT-mediated slow axonal transport of 2H-labeled tubulin in L5 root and sciatic nerve
Format: in vivo, mouse
Settings: 13 weeks old SOD1G93A mice; 3 weeks treatment

Structure (SMILES): Nc1nc2ccc(OC(F)(F)F)cc2s1 [Riluzole]
- slow axonal transport of 2H-tubulin: no significant effect
